Earlier results in patent publication US5562894A, “Amino-acyl-type and catecholamine-type contrast agents for MRI” (Regents of the University of California, priority 1993, dated 1996).

Conditions: in vivo; cited from earlier work

In the case of Iron-dextran, the plasma half-life is given as 12 h.
